Test results published in US10570379B2, “Polypeptides for carbon-carbon bond formation and uses thereof” (INVISTA North America S.à.r.l., priority 2015, dated 2020).

Experiment: Solubility of the expressed protein (Table 3)
Conditions: protein expressed in E. coli

B1: Bdigene 237: Acetate/Propionate CoA-transferase (YdiF) from Clostridium propionicum, Uniprot Q9L3F7, SEQ ID NO: 1 (protein, listed as Clostridium propionicum)
chain: MRKVPIITADEAAKLIKDGDTVTTSGFVGNAIPEALDRAVEKRFLETGEPKNITYVYCGSQGNRDGRGAEHFAHEGLLKRYIAGHWATVPALGKMAMENKMEAYNVSQGALCHLFRDIASHKPGVFTKVGIGTFIDPRNGGGKVNDITKEDIVELVEIKGQEYLFYPAFPIHVALIRGTYADESGNITFEKEVAPLEGTSVCQAVKNSGGIVVVQVERVVKAGTLDPRHVKVPGIYVDYVVVADPEDHQQSLDCEYDPALSGEHRRPEVVGEPLPLSAKKVIGRRGAIELEKDVAVNLGVGAPEYVASVADEEGIVDFMTLTAESGAIGGVPAGGVRFGASYNADALIDQGYQFDYYDGGGLDLCYLGLAECDEKGNINVSRFGPRIAGCGGFINITQNTPKVFFCGTFTAGGLKVKIEDGKVIIVQEGKQKKFLKAVEQITFNGDVALANKQQVTYITERCVFLLKEDGLHLSEIAPGIDLQTQILDVMDFAPIIDRDANGQIKLMDAALFAEGLMGLKEMKS
For B1, the Solubility was “✓”.
